Reference: patent publication EP4682156A1, “LINKER AND DRUG CONJUGATE USING SAME, AND ANTIBODY-DRUG CONJUGATE AND USE THEREOF” (Shanghai Affinity Biopharmaceutical Co., Ltd., priority 2023, dated 2024)

Test system: Human Fibrosarcoma
Assay: Drug efficacy study of drug conjugates on human fibrosarcoma tumor model
Format: in vivo, Nude mice
Details: 5 µmol/kg (1/10 MTD) once a week for 3 weeks

## DXd
  Anti-tumor rate% Day 20: 80%
  Tumor volume(mm^3) Day 20: 200 mm^3
